Data set [1] relates to mandiblar molars transplanted into the kidney of female mouse (C57BL/6). Description: Alveolar bone formation activity, compound-soaked collagen bead in mandiblar molar transplanted into mouse kidney. It is filed as in vivo. Conditions: collagen bead dipped in 1 mg/ml solution (1-2 μg compound), after 3 weeks, stained area vs negative control (100%). As to the method: Each compound of Example 1 was dissolved in a sterile biological saline to obtain a solution having a concentration of 1 mg/ml. Collagen bead (diameter: 1×2 mm, Gibco) used as a bone-grafting material was dipped into each solution at 37° C. for 45 minutes. Each resulting wet bead includes about 1-2 μl of the solution, and therefore 1-2 μg of each compound. Mandiblar molars before tooth-root formation were isolated from mice. The wet bead was inserted in the center of dental pulp of each isolated mandiblar molar, using tweezers. The resulting mandiblar molars were transplanted into the kidney of female mouse (C57BL/6). After 3 weeks, the growing molar teeth were fixed with a formalin solution and then stained with a Morse's solution. The stained sites were visualized under a microscope (Olympus IX71) and then the area was measured with an imageWarp software (London, England). The effects of the compounds on alveolar bone formation were evaluated by comparing with the negative control (100%).

Data set [2] deals with MC3T3-E1 cells. Description: Alkaline phosphatase (ALP) activity of osteoblasts. It is filed as cell-based. Conditions: positive control BMP2 100 ng/ml, 7 days, relative to negative control (100). As for the experimental part:
After removing the medium, α-MEM supplemented with β-glycerophosphate and ascorbic acid were added thereto as a differentiation-inducing agent for osteoblasts. Each compound of Example 1 was added to the culture medium in the final concentration of 5 μg/ml. The plate containing the cells was cultured for 7 days. 100 μl of a cell lysis buffer (Sigma, Catalog number: MCL1) was added to the cells, which were then incubated at 37° C. for 30 minutes. The resulting mixture (50 μl) was reacted with p-nitrophenyl phosphate as a substrate in a 0.1N glycine-NaOH buffer (pH 9.8), at 37° C. for 30 minutes. Each amount of p-nitrophenol released from the substrate was quantified by measuring an absorbance at 405 nm using an ELISA reader (Bio-Tek instrument). A positive control was treated with BMP2 in the concentration of 100 ng/ml. The alkaline phosphatase activities were calculated by obtaining relative absorbance differences through comparing with a negative control (no treatment).

Data set [3] relates to MC3T3-E1 cells. Description: In-vitro bone nodules of osteoblasts (calcium accumulation). It counts as cell-based. As to conditions: positive control BMP2 100 ng/ml, 27 days, relative to negative control (100). As to the method: MC3T3-E1 cells (RIKEN Cell Bank, Japan) (2×10^3 cells per well) as an osteoblast cell line were placed on each well of a 24-well plate and then cultured for 24 hours. The medium was changed with α-MEM supplemented with β-glycerophosphate and ascorbic acid as a differentiation-inducing agent for osteoblasts. Each compound of Example 1 was added to the culture medium in the final concentration of 5 μg/ml. The plate containing the cells was cultured for 27 days while changing the medium every three days or every four days. A positive control was treated with BMP2 in the concentration of 100 ng/ml. No treatment was made to the negative control. In order to quantify the amount of calcium accumulated in the cells, the cells were washed with a biological saline, and then calcium (Ca) was extracted with a 0.5N HCl solution for 6 hours on an agitator. The extracted solution (100 μl) was reacted with a Calcium Reagent (Sigma, USA) at room temperature for 5 minutes. […] The amount of calcium accumulated in the cells was calculated by obtaining relative absorbance differences through comparing with a negative control (no treatment).

As to “BMP2: bone morphogenic protein used as positive control; approved fracture-treating agent, bone-grafting material and bone-filler”, the “Alveolar bone formation (%)” value in data set [1] turned out to be 120%. In addition, the “Alkaline phosphatase activity of osteoblasts (%)” value in the data set on MC3T3-E1 cells [2] worked out at 150%. The “Calcium accumulation (%)” value with MC3T3-E1 cells [3] is 160%.

The values are drawn from patent publication US8871749B2, “Bone-transplant or bone-filling composition comprising a dihydroxybenzoic acid derivative” (Cellsafe Co., Ltd., priority 2010, dated 2014).
